pIC50: −log10 of the molar value.
System: AKT [pT308]

C(#Cc1n[nH]c2ccccc12)c1cccnc1 [Compound 9, 3-(pyridin-3-ylethynyl)-1H-indazole]
pIC50: 4.63

Reference: article PMC3131451 (Journal of medicinal chemistry, 2010)
